For assay [1], the target named is Receptor-type tyrosine-protein kinase FLT3 (Homo sapiens) (UniProt P36888). Description: Inhibition of human Flt3 assessed as remaining activity at 1 uM after 40 mins in presence of [gamma33P-ATP] by scintillation counting.
Assay [2] concerns the target Proto-oncogene tyrosine-protein kinase Src (Homo sapiens) (UniProt P12931). As to the kind of experiment: Inhibition of human c-Src assessed as remaining activity at 0.1 uM after 40 mins in presence of [gamma33P-ATP] by scintillation counting.
Assay [3] addresses Tyrosine-protein kinase Lyn (Homo sapiens) (UniProt P07948). Description: Inhibition of human Lyn assessed as remaining activity at 1 uM after 40 mins in presence of [gamma33P-ATP] by scintillation counting.
Assay [4] shares this target. As to the kind of experiment: Inhibition of human Lyn assessed as remaining activity at 0.1 uM after 40 mins in presence of [gamma33P-ATP] by scintillation counting.
In assay [5] the target is Tyrosine-protein kinase Fyn (Homo sapiens) (UniProt P06241). Description: Inhibition of human Fyn assessed as remaining activity at 0.1 uM after 40 mins in presence of [gamma33P-ATP] by scintillation counting.
Assay [6] shares this target. As to the kind of experiment: Inhibition of human Fyn assessed as remaining activity at 1 uM after 40 mins in presence of [gamma33P-ATP] by scintillation counting.
Assay [7] addresses Receptor-type tyrosine-protein kinase FLT3 (Homo sapiens) (UniProt P36888). Description: Inhibition of human Flt3 assessed as remaining activity at 0.1 uM after 40 mins in presence of [gamma33P-ATP] by scintillation counting.
The target in assay [8] is BDNF/NT-3 growth factors receptor (Homo sapiens) (UniProt Q16620). Description: Inhibition of human TrkB assessed as remaining activity at 0.1 uM after 40 mins in presence of [gamma33P-ATP] by scintillation counting.
Assay [9] deals with Proto-oncogene tyrosine-protein kinase Src (Homo sapiens) (UniProt P12931). As to the kind of experiment: Inhibition of human c-Src assessed as remaining activity at 1 uM after 40 mins in presence of [gamma33P-ATP] by scintillation counting.
Assay [10] concerns the target BDNF/NT-3 growth factors receptor (Homo sapiens) (UniProt Q16620). As to the kind of experiment: Inhibition of human TrkB assessed as remaining activity at 1 uM after 40 mins in presence of [gamma33P-ATP] by scintillation counting.

Amino acid sequences for entries named in this document (tags omitted). A change or cut given only in a name is not applied to a line headed by its entry.
UniProt P36888, whole entry: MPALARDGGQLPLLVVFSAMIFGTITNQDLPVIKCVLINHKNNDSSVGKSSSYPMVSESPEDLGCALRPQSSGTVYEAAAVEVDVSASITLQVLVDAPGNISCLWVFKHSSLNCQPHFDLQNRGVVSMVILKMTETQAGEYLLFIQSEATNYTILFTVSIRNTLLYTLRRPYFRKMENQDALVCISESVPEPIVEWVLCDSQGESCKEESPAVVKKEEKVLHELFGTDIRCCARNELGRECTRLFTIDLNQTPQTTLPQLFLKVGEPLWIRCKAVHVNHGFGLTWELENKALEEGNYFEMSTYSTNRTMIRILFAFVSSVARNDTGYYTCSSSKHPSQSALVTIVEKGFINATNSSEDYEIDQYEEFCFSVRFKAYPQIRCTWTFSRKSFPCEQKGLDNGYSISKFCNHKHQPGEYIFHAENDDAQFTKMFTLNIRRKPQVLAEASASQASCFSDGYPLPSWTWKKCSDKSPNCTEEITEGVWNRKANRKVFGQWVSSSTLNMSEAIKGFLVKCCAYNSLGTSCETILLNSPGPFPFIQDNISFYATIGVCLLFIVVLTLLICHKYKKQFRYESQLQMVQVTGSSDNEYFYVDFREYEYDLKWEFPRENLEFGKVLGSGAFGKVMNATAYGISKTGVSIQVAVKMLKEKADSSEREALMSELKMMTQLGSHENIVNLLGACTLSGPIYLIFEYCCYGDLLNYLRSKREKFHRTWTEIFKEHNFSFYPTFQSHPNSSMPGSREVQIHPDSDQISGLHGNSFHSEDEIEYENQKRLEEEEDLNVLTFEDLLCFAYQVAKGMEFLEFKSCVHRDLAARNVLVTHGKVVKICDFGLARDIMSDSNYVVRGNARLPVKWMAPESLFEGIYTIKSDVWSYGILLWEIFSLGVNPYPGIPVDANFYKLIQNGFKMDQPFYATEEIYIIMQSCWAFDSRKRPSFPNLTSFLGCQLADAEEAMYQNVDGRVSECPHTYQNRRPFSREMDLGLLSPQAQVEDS
UniProt P07948: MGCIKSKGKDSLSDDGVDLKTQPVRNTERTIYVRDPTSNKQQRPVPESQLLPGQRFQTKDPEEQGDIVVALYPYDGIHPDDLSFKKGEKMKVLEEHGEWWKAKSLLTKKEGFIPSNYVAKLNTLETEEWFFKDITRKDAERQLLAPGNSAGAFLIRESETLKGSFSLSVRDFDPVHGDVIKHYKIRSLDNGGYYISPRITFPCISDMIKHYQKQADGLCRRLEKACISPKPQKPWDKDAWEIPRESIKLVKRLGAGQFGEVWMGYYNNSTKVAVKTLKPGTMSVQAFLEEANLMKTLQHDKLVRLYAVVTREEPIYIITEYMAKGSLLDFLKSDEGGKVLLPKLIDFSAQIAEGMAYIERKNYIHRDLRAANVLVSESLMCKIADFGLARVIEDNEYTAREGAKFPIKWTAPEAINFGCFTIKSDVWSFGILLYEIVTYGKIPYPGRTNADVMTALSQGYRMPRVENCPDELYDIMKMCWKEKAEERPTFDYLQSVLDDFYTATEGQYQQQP
UniProt P06241, whole entry, looked up: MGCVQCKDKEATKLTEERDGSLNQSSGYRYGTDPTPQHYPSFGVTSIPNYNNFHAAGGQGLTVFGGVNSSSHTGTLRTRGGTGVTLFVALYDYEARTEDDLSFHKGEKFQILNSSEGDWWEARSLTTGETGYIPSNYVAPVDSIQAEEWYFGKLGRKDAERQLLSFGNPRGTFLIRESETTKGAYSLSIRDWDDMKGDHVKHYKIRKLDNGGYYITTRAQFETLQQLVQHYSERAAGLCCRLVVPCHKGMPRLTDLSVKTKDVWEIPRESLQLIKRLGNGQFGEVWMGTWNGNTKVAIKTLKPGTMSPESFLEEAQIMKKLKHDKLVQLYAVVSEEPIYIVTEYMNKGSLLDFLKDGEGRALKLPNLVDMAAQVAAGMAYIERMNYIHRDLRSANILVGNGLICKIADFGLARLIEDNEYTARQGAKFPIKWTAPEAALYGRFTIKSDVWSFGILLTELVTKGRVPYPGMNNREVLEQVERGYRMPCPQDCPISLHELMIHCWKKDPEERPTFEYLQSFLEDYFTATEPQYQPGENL
UniProt Q16620, whole entry, looked up: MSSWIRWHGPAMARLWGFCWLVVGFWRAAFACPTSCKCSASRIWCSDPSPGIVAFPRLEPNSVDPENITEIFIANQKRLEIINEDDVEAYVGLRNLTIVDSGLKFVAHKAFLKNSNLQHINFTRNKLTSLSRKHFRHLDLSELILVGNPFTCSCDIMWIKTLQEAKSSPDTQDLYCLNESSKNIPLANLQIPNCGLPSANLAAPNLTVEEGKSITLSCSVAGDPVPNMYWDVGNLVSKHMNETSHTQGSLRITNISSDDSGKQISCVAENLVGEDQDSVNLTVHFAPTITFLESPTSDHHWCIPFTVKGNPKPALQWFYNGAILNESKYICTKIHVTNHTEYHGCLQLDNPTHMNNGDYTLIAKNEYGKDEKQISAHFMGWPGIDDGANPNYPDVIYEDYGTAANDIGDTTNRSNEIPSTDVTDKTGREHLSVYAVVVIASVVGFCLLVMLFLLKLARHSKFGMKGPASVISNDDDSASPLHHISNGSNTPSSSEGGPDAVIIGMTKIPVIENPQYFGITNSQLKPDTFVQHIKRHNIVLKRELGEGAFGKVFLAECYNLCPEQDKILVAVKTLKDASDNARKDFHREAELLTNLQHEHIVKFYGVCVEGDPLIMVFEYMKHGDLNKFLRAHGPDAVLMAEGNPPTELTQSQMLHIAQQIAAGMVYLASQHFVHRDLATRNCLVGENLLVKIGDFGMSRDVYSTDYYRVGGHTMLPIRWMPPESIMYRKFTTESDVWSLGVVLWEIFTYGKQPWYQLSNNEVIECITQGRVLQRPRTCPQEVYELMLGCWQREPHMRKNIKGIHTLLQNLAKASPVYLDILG

As to `CNc1cc(O)c2c(c1)/C=C/C[C@H](O)[C@H](O)C(=O)/C=C\[C@@H](C)[C@H](C)OC2=O`, the Activity in [1] amounted to 8%; in assay [2], 47%; in [3] it was 2%; in [4], 15%; in [5], 25%; in assay [6], 2%. For the same molecule, the Activity in assay [7] turned out to be 48%; in assay [8], 15%; in assay [9], 5%; in assay [10], 4%.

These data come from ChEMBL document CHEMBL3880411, “Multikinase inhibitors for use in the treatment of cancer” (2009).
